The record followed here is ChEMBL document CHEMBL3822442, “Synthesis and Pharmacological Characterization of Novel Glucagon-like Peptide-2 (GLP-2) Analogues with Low Systemic Clearance” (J Med Chem, 2016).

Type in all cases: cell-based
Assay [1] addresses T1, Glucagon-like peptide 2 receptor (Homo sapiens, UniProt O95838).
T1 sequence (O95838 whole entry): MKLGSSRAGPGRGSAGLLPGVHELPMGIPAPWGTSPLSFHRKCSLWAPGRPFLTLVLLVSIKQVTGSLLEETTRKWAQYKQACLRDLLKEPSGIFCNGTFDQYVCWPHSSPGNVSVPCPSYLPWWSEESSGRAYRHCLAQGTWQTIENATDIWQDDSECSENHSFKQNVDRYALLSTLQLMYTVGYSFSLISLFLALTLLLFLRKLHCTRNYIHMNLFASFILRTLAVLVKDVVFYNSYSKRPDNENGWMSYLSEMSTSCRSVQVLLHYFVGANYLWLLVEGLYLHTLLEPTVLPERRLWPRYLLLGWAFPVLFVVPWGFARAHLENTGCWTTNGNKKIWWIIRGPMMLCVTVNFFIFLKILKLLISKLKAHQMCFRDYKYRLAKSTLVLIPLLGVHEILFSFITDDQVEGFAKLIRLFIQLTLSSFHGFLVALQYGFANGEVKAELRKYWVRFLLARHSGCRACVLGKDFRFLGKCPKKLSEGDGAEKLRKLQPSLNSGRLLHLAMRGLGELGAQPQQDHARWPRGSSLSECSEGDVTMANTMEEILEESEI
In words: Agonist activity at human GLP2R expressed in HEK293 cells after 5 hrs by luciferase reporter gene assay. For orientation: In a reporter assay the amount or activity of a reporter protein is the signal.

For assay [2], the target named is T2, Glucagon-like peptide 2 receptor (Homo sapiens) (UniProt O95838).
T2 sequence (whole entry): T1 sequence (O95838 whole entry)
In words: Potency index, ratio of compound EC50 to compound 2 EC50 for human GLP2R expressed in HEK293 cells.

The next assay deals with HEK293. Put plainly: Selectivity ratio of EC50 for human GLP1R expressed in HEK293 cells to EC50 for human GLP2R expressed in HEK293.

A value given as a limit tells only on which side of the number the result lay.

The EC50 is the concentration at which the effect is half-maximal.

As to `CC[C@H](C)[C@H](NC(=O)[C@H](Cc1ccccc1)NC(=O)[C@H](CC(=O)O)NC(=O)[C@H](CCCNC(=N)N)NC(=O)[C@H](C)NC(=O)[C@H](C)NC(=O)[C@H](CC(C)C)NC(=O)[C@H](CC(N)=O)NC(=O)[C@H](CC(=O)O)NC(=O)[C@H](CC(C)C)NC(=O)[C@@H](NC(=O)[C@@H](NC(=O)[C@H](CC(N)=O)NC(=O)[C@H](CCSC)NC(=O)[C@H](CCC(=O)O)NC(=O)[C@H](CC(=O)O)NC(=O)[C@H](CO)NC(=O)[C@H](Cc1ccccc1)NC(=O)[C@H](CO)NC(=O)CNC(=O)[C@H](CC(=O)O)NC(=O)CNC(=O)[C@@H](N)Cc1c[nH]cn1)[C@@H](C)O)[C@@H](C)CC)C(=O)N[C@@H](CC(N)=O)C(=O)N[C@@H](Cc1c[nH]c2ccccc12)C(=O)N[C@@H](CC(C)C)C(=O)N[C@H](C(=O)N[C@@H](CCC(N)=O)C(=O)N[C@H](C(=O)N[C@@H](CCCCN)C(=O)N[C@H](C(=O)N[C@H](C(=O)N[C@@H](CC(=O)O)C(=O)O)[C@@H](C)O)[C@@H](C)CC)[C@@H](C)O)[C@@H](C)CC` [TEDUGLUTIDE], in assay [1], the EC50 is 0.09 nM. For the same compound, the Ratio EC50 in assay [2] is 1; in the assay on HEK293, greater than 11000.
